# Measurements reported in patent US4721775A, “Effective peptides related to the luteinizing hormone releasing hormone from L-amino acids” (Board of Regents, The University of Texas System, priority 1985, dated 1988).
# How the values were obtained:
# release of LH = experiment: Release of LH in rats after sc injection; assay type: in vivo; details: for LH % change: LHRH = 100
# Text: (§1) The data on the release of LH and FSH in rats by modifications of LHRH with one structural change are in Table II.
# (§2) Exclusive of the salmon-LHRH, only one of the six decapeptides with two structural changes had significant activity.
# release of FSH = experiment: Release of FSH in rats after sc injection; assay type: in vivo; details: for FSH % change: LHRH = 100
# Text: as §1, §2
# [1] = tested on: rat anterior pituitary cells in primary culture; details: cited from earlier work
# rat pituitary cells = details: cited from earlier work
# [2] = 30 min. after sc injection, 100 ng
# [3] = 30 min. after sc injection, 1000 ng
# [4] = 60 min. after sc injection, 3000 ng
# [5] = release 30 min. after sc injection, dosage of peptide 100 ng
# [6] = release 30 min. after sc injection, dosage of peptide 1000 ng
# [7] = release 60 min. after sc injection, dosage of peptide 3000 ng
# [8] = fraction of the activities of LHRH or words
smiles,measurement,setting,value
"CC(C)C[C@H](NC(=O)CNC(=O)[C@H](Cc1ccc(O)cc1)NC(=O)[C@H](CO)NC(=O)[C@H](Cc1c[nH]c2ccccc12)NC(=O)[C@H](Cc1c[nH]cn1)NC(=O)[C@@H]1CCC(=O)N1)C(=O)N[C@@H](CCC(N)=O)C(=O)N1CCC[C@H]1C(=O)NCC(N)=O [[Gln^8]--LHRH, pGlu--His--Trp--Ser--Tyr--Gly--Leu--Gln--Pro--Gly--NH2, reference compound]",LH % change,release of LH; [2],5.5%
same,LH % change,release of LH; [3],15.2%
same,LH % change,release of LH; [4],7%
same,LH,release of LH; [5],0.6 ng/mL
same,LH,release of LH; [6],7 ± 0.8 ng/mL
same,LH,release of LH; [7],5.5 ng/mL
same,FSH % change,release of FSH; [2],58%
same,FSH % change,release of FSH; [3],57%
same,FSH % change,release of FSH; [4],49%
same,FSH,release of FSH; [5],284 ng/mL
same,FSH,release of FSH; [6],396 ng/mL
same,FSH,release of FSH; [7],465 ng/mL
same,activities to release LH compared with LHRH (Table I),[1]; [8],extremely low activities
same,activity (potency) to release LH relative to P/O LHRH,"[1]; in vitro, rat pituitary cells, Sherwood et al. (a), Miyamoto et al. (b)",3.4%
same,activities to release FSH compared with LHRH (Table I),rat pituitary cells; [8],extremely low activities
same,activity to release FSH relative to P/O LHRH,"rat pituitary cells; in vitro, rat pituitary cells, Miyamoto et al. (b)",3.2%
